Experiment [1] deals with T1, Mucosa-associated lymphoid tissue lymphoma translocation protein 1 (Homo sapiens) (UniProt Q9UDY8).
T1 sequence (whole entry): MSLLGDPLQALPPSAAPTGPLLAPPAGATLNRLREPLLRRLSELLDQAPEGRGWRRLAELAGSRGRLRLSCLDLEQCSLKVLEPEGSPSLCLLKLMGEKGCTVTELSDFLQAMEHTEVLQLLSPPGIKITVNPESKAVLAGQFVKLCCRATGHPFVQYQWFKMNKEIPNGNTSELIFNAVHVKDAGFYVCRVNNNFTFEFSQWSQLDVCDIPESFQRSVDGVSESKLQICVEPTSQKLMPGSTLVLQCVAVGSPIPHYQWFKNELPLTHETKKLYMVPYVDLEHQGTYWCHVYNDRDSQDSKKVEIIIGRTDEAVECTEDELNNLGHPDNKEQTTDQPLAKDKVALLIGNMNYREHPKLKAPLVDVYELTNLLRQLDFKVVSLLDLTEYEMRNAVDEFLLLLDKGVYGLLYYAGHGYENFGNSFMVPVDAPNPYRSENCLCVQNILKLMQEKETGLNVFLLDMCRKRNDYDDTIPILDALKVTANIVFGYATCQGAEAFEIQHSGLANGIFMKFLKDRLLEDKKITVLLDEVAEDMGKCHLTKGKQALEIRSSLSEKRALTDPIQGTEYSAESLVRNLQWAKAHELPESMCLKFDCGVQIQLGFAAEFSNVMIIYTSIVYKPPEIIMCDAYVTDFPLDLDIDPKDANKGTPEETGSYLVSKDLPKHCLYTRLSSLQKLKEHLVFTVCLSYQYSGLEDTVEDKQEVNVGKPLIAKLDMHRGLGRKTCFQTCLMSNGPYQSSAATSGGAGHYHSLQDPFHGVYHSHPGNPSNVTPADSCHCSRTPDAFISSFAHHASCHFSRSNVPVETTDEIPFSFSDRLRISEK
Kind of experiment: Inhibition of MALT1 in human OCI-LY3 cells assessed as reduction in Relb cleavage at 20 uM by Western blot analysis. The class given is cell-based. A general note: A western blot detects proteins with antibodies after separation by electrophoresis.

Experiment [2] concerns the target T1, Mucosa-associated lymphoid tissue lymphoma translocation protein 1 (Homo sapiens). To be noted: 1.25 uM.

The source made the active and inactive calls. No cut-off for these calls is given here.

Take `CC(C)[C@H](NC(=O)OCc1ccccc1)C(=O)N[C@@H](CCCNC(=N)N)C(=O)N1CCC[C@H]1C(=O)N[C@@H](CCCNC(=N)N)C(=O)CF`: the inhibition (as a rule, the change of the read-out against control, counted positive when it falls) in experiment [1] is “Active”.

For `CC(C)C[C@H](NC(=O)OCc1ccccc1)C(=O)N[C@H](C(=O)N1CCC[C@H]1C(=O)N[C@@H](CCCNC(=N)N)C(=O)CF)C(C)C`, the inhibition in experiment [2] worked out at 100%.
